Reference: patent US12382888B2, “Compositions and methods for modulating immunity in plants” (Boyce Thompson Institute for Plant Research, Inc., priority 2013, dated 2025)

Tests used:
PR-1, FRK1, PHI1, WRKY53 = experiment: Defense gene expression in Arabidopsis roots (qRT-PCR); conditions: 300 nM; 6 hours
PR-1 = PR-1 protein/transcript induction in tobacco leaves (immunoblot, RT-PCR)

With `CC1O[C@@H](O[C@@H](C)CCCCCCCCC(=O)O)C(O)C[C@H]1O` (stereo in doubt) [ascr #18, (10R)-(3′R,5′R-dihydroxy-6′S-methyl-(2H)-tetrahydropyran-2-yloxy)-undecanoic Acid] as the compound, how does the “root expression of PHI1, FRK1, and WRKY53” value (PR-1, FRK1, PHI1, WRKY53) read?
Its value is “no effect or reduced expression”.

And the “SA-induced PR-1 accumulation” value (PR-1; ascr #18 10 μM with 50 μM SA, leaf infiltration)?
Its value is “appeared to inhibit the ability of 50 μM SA to induce low-level PR-1 accumulation”.

What about the “PR-1 accumulation in presence of SA” value (PR-1; ascr #18 0.01 or 0.3 μM with SA 500 μM or 50 μM, leaf infiltration, vs SA only) of the same compound?
Its value is “enhanced SA induction of PR-1 protein production”.

What about the “SA-mediated induction of PR-1 expression/protein accumulation in leaves” value (PR-1; roots treated with 0.01 μM by immersion, leaves SA 250 μM, 48 h) of the same compound?
The value was “enhance SA-mediated induction of PR-1 expression/protein accumulation; also recorded: enhanced induction by SA of PR-1 transcript”.

“Also recorded” adds a separate entry of the source.
